## Yeast mating assay B: variants of the scFv Ab-14

Reference: Li et al. 2023, doi:10.1038/s41467-023-39022-2. File: FLAb, binding data.

Antigen: PDVDLGDISGINAS, a 14-residue peptide of the SARS-CoV-2 spike HR2 region.

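Phage display of a naive human antibody library on the peptide gave the parent. The variants were designed computationally from a first round of random CDR variants and then made and measured. Their group label is 14L_En_Gibbs (En: ensemble of fine-tuned language models; Gibbs: Gibbs sampling). The scFvs were displayed on barcoded MATa yeast, the peptide on MATalpha yeast. The frequency of each diploid, read from paired DNA barcodes, reflects how well the two displayed proteins bind. A regression on co-assayed BCL2-family reference pairs converts the normalised counts of each replicate to an apparent Kd. The assay was run in six technical replicates.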

Parent: Ab-14, a human scFv built as VH, the linker GGGGSGGGGSGGGGS, VL. Only the CDRs of the light chain vary.
VH: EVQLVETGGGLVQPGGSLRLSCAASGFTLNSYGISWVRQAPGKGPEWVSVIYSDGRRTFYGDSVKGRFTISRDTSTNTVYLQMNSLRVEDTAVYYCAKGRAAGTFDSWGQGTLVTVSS
VL: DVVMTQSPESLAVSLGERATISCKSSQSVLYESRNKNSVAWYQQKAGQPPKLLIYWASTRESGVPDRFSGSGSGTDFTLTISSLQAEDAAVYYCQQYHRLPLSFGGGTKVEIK

The parent's light chain CDRs are KSSQSVLYESRNKNSVA, WASTRES, QQYHRLPLS; each variant's own CDRs replace them letter for letter.
Scale: log10 of Kd in nM, estimated from mating counts; low values are strong binders.
Replicates are averaged; those with no signal do not enter the mean.
"n.d." marks a missing value. The strain was present, yet no cells mated with the target were sequenced in that replicate, which points to weak or no binding.
As a blank, each scFv also met three strains without target: over all light chain designs, 4% of these pairings were detected, typically at 2.64 and seldom below 1.59. For each scFv, signals with the empty controls are counted beside the result, with their mean in brackets.

| # | CDR-L1 | CDR-L2 | CDR-L3 | replicates, log10 nM | mean, log10 nM | control signals |
|---|---|---|---|---|---|---|
| 1 | HMNHEFLGYWNYEQAIA | HESQRLY | QQYSRLPLS | n.d. / n.d. / n.d. / n.d. / n.d. / n.d. | n.d. | 0 of 18 |
| 2 | QINVNRLMNYTMNNAIA | GKTLRVD | QQYAQLPLS | 1.69 / 1.26 / 1.30 / 1.30 / 1.20 / 1.04 | 1.30 | 0 of 18 |
| 3 | HMSDSIEKMASIERNIA | DETTTAM | QQYYRLPLS | 2.17 / 1.70 / 0.94 / 1.34 / 1.06 / 1.76 | 1.50 | 1 of 18 (2.23) |
| 4 | HSSPSWYYDSRNKNHVA | DATTRES | QQYHRLPLT | 0.31 / 0.31 / 0.53 / 0.58 / 0.39 / 0.57 | 0.45 | 1 of 18 (2.55) |
| 5 | SIRQVTCDNQATHSNIA | DATQIEP | QQYSRLPLS | 0.35 / 0.37 / 0.28 / -0.16 / 0.18 / 0.34 | 0.23 | 4 of 18 (3.25) |
| 6 | VFQDQWDGHTNTHNSVA | NVDEKME | QQYYRLPLL | 0.13 / 0.03 / -0.04 / -0.37 / -0.28 / -0.02 | -0.09 | 0 of 18 |
| 7 | HVELGVGGVQKYGDSVA | HASQRQS | QQYYQLPLT | 0.79 / 0.66 / 0.45 / 0.28 / 0.45 / 0.54 | 0.53 | 1 of 18 (2.77) |
| 8 | HLQEQSFVGQKDYWSVA | NTECKYN | QQYARLPLM | 1.81 / 1.77 / 1.96 / 2.04 / 2.70 / 1.43 | 1.95 | 0 of 18 |
| 9 | KLSISIRGEGSEVQSVA | GAEELRQ | QHYNQLPLS | 1.10 / 0.69 / 1.24 / 0.51 / 1.40 / 1.59 | 1.09 | 1 of 18 (2.47) |
| 10 | RLLDWAYNLTAKDSNIA | DQDISGS | QQYSHLPLA | n.d. / 2.49 / 2.29 / n.d. / n.d. / n.d. | 2.39 | 1 of 18 (2.75) |
| 11 | SLSEMEAGRDAANKSIA | AKQLMME | QQYHRLPLA | n.d. / n.d. / n.d. / n.d. / n.d. / n.d. | n.d. | 1 of 18 (2.42) |
| 12 | KIHCRELWYQGQINNIA | EAAKLVE | QQYALLPLA | n.d. / n.d. / n.d. / n.d. / n.d. / n.d. | n.d. | 0 of 18 |
| 13 | KLMTQVGHQMDHKNSIA | HVDMVAQ | QQYMHLPLI | 2.29 / 1.78 / 2.23 / 2.06 / 1.68 / 2.26 | 2.05 | 0 of 18 |
| 14 | KLFGGILEQERIDYSIA | YGTLSEV | QQYDRLPLS | n.d. / n.d. / n.d. / n.d. / n.d. / n.d. | n.d. | 0 of 18 |
| 15 | SLEMFTGMLNMYASSIA | NAHYLVQ | QQYYRLPIS | n.d. / 3.39 / 3.77 / 1.57 / n.d. / 3.02 | 2.93 | 0 of 18 |
| 16 | VFQQQWDGHTDTNNSVA | NVDEKME | QQYYRLPLL | 1.30 / 1.10 / 1.28 / 1.18 / 0.91 / 1.23 | 1.17 | 1 of 18 (2.60) |
| 17 | LIMKFMSQDGSARNNIA | GDTKLAQ | QHYHRLPLS | n.d. / n.d. / n.d. / n.d. / n.d. / n.d. | n.d. | 0 of 18 |
| 18 | QVSITNMQGHAMEHNVA | EGTYAEE | QQYARLPLQ | 1.02 / 0.81 / 0.62 / 0.39 / 0.65 / 0.79 | 0.71 | 1 of 18 (2.43) |
| 19 | HSNGQLVMGERNQNHVA | STDVRAS | QQYSRLPFT | 0.04 / 0.05 / 0.02 / -0.10 / 0.06 / 0.13 | 0.03 | 1 of 18 (2.63) |
| 20 | SLSHGSEGSKNEEASIA | STELGMA | QQYARLPLA | n.d. / n.d. / n.d. / 2.34 / n.d. / n.d. | 2.34 | 0 of 18 |
| 21 | KMTKAEQGIGSHQQNIA | DSNKITD | QQYYRLPLS | 0.05 / 0.09 / 0.01 / 0.07 / 0.02 / 0.23 | 0.08 | 0 of 18 |
| 22 | NLSIQNQPQNMSANNVA | QTESRCE | QQYNQLPLA | n.d. / n.d. / n.d. / 2.71 / n.d. / n.d. | 2.71 | 0 of 18 |
| 23 | SLTNETDGNYGKNNSVA | DAEELMT | QDYFRLPIT | 1.01 / 1.17 / 0.82 / 0.91 / 0.83 / 1.36 | 1.02 | 0 of 18 |
| 24 | NIVGRVNQKGTTTANIA | DAELRAG | QQYSRLPLS | 0.69 / 0.19 / 0.26 / 0.08 / 0.14 / 0.89 | 0.38 | 0 of 18 |
| 25 | HIDWYNRGETLKKDDIA | NATHREQ | QQYFHLPLI | 0.34 / 0.33 / 0.22 / 0.15 / 0.41 / 0.70 | 0.36 | 1 of 18 (3.18) |
| 26 | SLHMMNMVGYANNANVA | NASQLFS | QHYFRLPLQ | 0.52 / 0.58 / 0.39 / 0.34 / 0.19 / 0.67 | 0.45 | 3 of 18 (2.75) |
| 27 | HISSMDMHDGGIIHSIA | DTGITER | QQYMRLPLI | 0.07 / 0.11 / 0.06 / 0.13 / -0.07 / 0.20 | 0.08 | 0 of 18 |
| 28 | QLQWLAINGQGVMNNIA | DRVQEQM | QQYFRLPFT | n.d. / 1.75 / n.d. / n.d. / n.d. / 1.35 | 1.55 | 0 of 18 |
| 29 | SLHHYKLGENGMRGSVA | NATIRDQ | QQYFRLPLF | 0.47 / 0.65 / 0.38 / 0.22 / 0.37 / 0.36 | 0.41 | 2 of 18 (3.14) |
| 30 | QFHSGMIGDQRNVHSIA | NAQAAVP | QYYFRLPLS | 0.69 / 1.85 / 1.70 / 1.04 / 3.39 / 1.31 | 1.66 | 0 of 18 |
| 31 | KLNSDSVLQWNINNSVA | EMSEVIQ | QQYVHLPLM | n.d. / n.d. / 1.28 / n.d. / 1.34 / 1.99 | 1.54 | 0 of 18 |
| 32 | MLWQQMYGFNLHKDAIA | NGKERTG | QQYGRLPLS | 1.98 / 0.73 / 0.50 / 1.35 / 0.69 / 0.93 | 1.03 | 0 of 18 |
| 33 | NVKAMLNMWARDIHNVA | HADERAS | QQYSRLPLG | -0.03 / -0.03 / 0.11 / 0.01 / 0.07 / 0.10 | 0.04 | 1 of 18 (2.48) |
| 34 | NIRGRVNGKGTTTKNIA | DAEFRAG | QQYSRLPLS | 0.15 / 0.00 / 0.01 / -0.17 / -0.23 / -0.01 | -0.04 | 2 of 18 (2.59) |
| 35 | NLGFEDANDNRGMMAVA | DVNTVGE | QQYNRLPLA | n.d. / 0.10 / n.d. / 1.16 / n.d. / 1.05 | 0.77 | 0 of 18 |
| 36 | QLEFRDVQGGAEWHAIA | EASQLGQ | QQYFHLPLG | 1.27 / 0.85 / 0.68 / 1.04 / 1.28 / 1.21 | 1.06 | 2 of 18 (2.68) |
| 37 | KLQLQPLFGAQAQSSIA | DVSEADM | QQYARLPLH | 2.22 / 2.38 / 2.43 / 1.42 / 2.87 / 1.79 | 2.19 | 0 of 18 |
| 38 | SFTIEGLQQQEQYKSVA | GEQKTVD | QQYGRLPLS | 1.46 / 0.33 / 0.30 / 1.06 / 0.54 / 0.59 | 0.71 | 1 of 18 (2.45) |
| 39 | NMGGTKEMQSNEIGNIA | EMNERFA | QQYFQLPLS | 1.11 / 1.12 / 1.12 / 1.46 / 1.40 / 1.57 | 1.30 | 1 of 18 (3.72) |
| 40 | RLENQETEQIQHANSIA | DRDEVDV | QQYAHLPLS | 0.36 / n.d. / 1.55 / 1.72 / 1.19 / 0.34 | 1.03 | 0 of 18 |
| 41 | DVHALMNHSEDLMQNIA | DESCRDA | QQYERLPLS | 1.33 / 2.22 / 1.41 / 1.70 / 1.84 / 1.72 | 1.70 | 1 of 18 (2.97) |
| 42 | VFQEMVQGVEQDYNNIA | ENSYASR | QQYFRLPLA | n.d. / n.d. / n.d. / n.d. / n.d. / n.d. | n.d. | 0 of 18 |
| 43 | KITQIFFPYGNSWHSVA | NANTLAH | QQYYMLPLM | n.d. / n.d. / n.d. / n.d. / n.d. / n.d. | n.d. | 0 of 18 |
| 44 | AISFEMMSPHNHSNNVA | SESKRCS | QQYFTLPLS | 1.50 / 2.07 / 1.32 / 1.17 / 1.46 / 1.58 | 1.52 | 0 of 18 |
| 45 | KLGEQGGHSMDHANNIA | EVDMLAQ | QQYMHLPLI | 0.34 / 0.18 / 0.08 / -0.09 / -0.02 / 0.25 | 0.12 | 0 of 18 |
| 46 | NLGFVDDNDNRGMMNVA | DVNTVGE | QQYNRLPLA | 1.41 / 1.41 / 0.64 / 0.83 / 0.53 / 1.29 | 1.02 | 0 of 18 |

Again, the first 5 entries without any signal:

| CDR-L1 | CDR-L2 | CDR-L3 | replicates, log10 nM | mean, log10 nM | control signals |
|---|---|---|---|---|---|
| HMNHEFLGYWNYEQAIA | HESQRLY | QQYSRLPLS | n.d. / n.d. / n.d. / n.d. / n.d. / n.d. | n.d. | 0 of 18 |
| SLSEMEAGRDAANKSIA | AKQLMME | QQYHRLPLA | n.d. / n.d. / n.d. / n.d. / n.d. / n.d. | n.d. | 1 of 18 (2.42) |
| KIHCRELWYQGQINNIA | EAAKLVE | QQYALLPLA | n.d. / n.d. / n.d. / n.d. / n.d. / n.d. | n.d. | 0 of 18 |
| KLFGGILEQERIDYSIA | YGTLSEV | QQYDRLPLS | n.d. / n.d. / n.d. / n.d. / n.d. / n.d. | n.d. | 0 of 18 |
| LIMKFMSQDGSARNNIA | GDTKLAQ | QHYHRLPLS | n.d. / n.d. / n.d. / n.d. / n.d. / n.d. | n.d. | 0 of 18 |

Values of this round are not directly comparable with the first-round values of the same sequences.
The authors' rule: three or more of the six replicates give a measured affinity, fewer mean a poor binder.